This passage reports inhibition results from PubChem BioAssay AID488899 (Broad Institute, 2010).

This is a selection; strong and weak results do not stand in their true shares. Some structures show a salt or complex split into parts, the way the source records it. The source made the active and inactive calls.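 How the source made its calls: active means mean inhibition across replicates of 60% or more, whatever share of single replicates reaches that level; inconclusive means some that reach 60%, reason not given; inactive means mean inhibition across replicates below 60%.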

A short description of this test: inhibitors of MITF-dependent TRPM1 promoter reporter, primary screen, cell-based, SK-MEL-5, single point, luciferase (AID 488899). The settings on record: SK-MEL-5 TRPM1 promoter luciferase, 24 h; at 12.5 µM; hits give high values.
For orientation: inhibition means the drop in the measured response relative to a control, in per cent. Turning to `CCOC(=O)c1ccc(NP(C)(=O)Oc2ccc(F)cc2)cc1` (centres undefined), the inhibition is inactive: -9.44%.

With `COc1ccc(OP(C)(=O)Nc2ccc(SC(F)(F)F)cc2)cc1` (centres undefined), the inhibition was inactive: 8.16%.

As for `O=C(OC1CN2CCC1CC2)c1ccc([N+](=O)[O-])cc1` (centres undefined), the inhibition was inactive: 3.54%.

For the compound `O=C(OCCN1CCN(CCOCc2ccccc2)CC1)C(O)(c1ccccc1)c1ccccc1`, the inhibition is inactive: 8.84%.

On to `COc1ccc2c(c1O)-c1c(O)c(OC)cc3c1[C@H](C2)[N+](C)(C)CC3.O=[N+]([O-])c1cc([N+](=O)[O-])c([O-])c([N+](=O)[O-])c1[O-]`, for which the inhibition is inactive: 20.2%.

`CP(=O)(Nc1ccccc1F)Oc1ccccc1` (centres undefined): the inhibition is inactive: 3.7%.

With `CC(C)c1ccc(OP(C)(=O)Nc2ccc(SC(F)(F)F)cc2)cc1` (centres undefined), the inhibition is inactive: -1.3%.

Turning to `O=[N+]([O-])c1cc([N+](=O)[O-])c(Nc2ccccn2)c([N+](=O)[O-])c1`, the inhibition was active: 84.5%.

In the case of `Cc1c(NP(C)(=O)Oc2ccc(C(C)C)cc2)c(=O)n(-c2ccccc2)n1C` (centres undefined), the inhibition was inactive: 3.58%.

As for `COc1ccccc1OP(C)(=O)Nc1ccc(C)cc1C` (centres undefined), the inhibition was inactive: 7.49%.

Consider `CP(=O)(Nc1ccccn1)Oc1ccccc1` (centres undefined), for which the inhibition was inactive: 3.2%.

For the compound `CCc1ccc(OP(C)(=O)O)cc1`, the inhibition is inactive: -1.22%.

Regarding `COc1ccccc1OP(C)(=O)Nc1ccc(Br)cc1` (centres undefined), the inhibition is inactive: 8.03%.

For the compound `COc1ccc(OP(C)(=O)Nc2ccccn2)cc1` (centres undefined), the inhibition is inactive: 6.61%.

On to `CN(C)CCOC(=O)C(O)(c1ccccc1)C1CCCC1` (centres undefined), for which the inhibition was inactive: 2.77%.

Take `CP(=O)(OCCOc1ccccc1)OCCOc1ccccc1`: the inhibition is inactive: -4.38%.

Turning to `CP(=O)(Nc1ccc(Cl)cc1Cl)Oc1ccccc1` (centres undefined), the inhibition is inactive: 3.25%.

As to `CCCCCCCCCCCCCCCC1C[N+](C)(C)CCOP(C)(=O)O1` (centres undefined), the inhibition is inactive: 8.21%.

In the case of `Cc1cc(C)cc(OP(C)(=O)Nc2cccc(C(F)(F)F)c2)c1` (centres undefined), the inhibition is inactive: -5.22%.

As to `O=C1C(O)=C([N+](=O)[O-])C(=O)C(O)=C1[N+](=O)[O-]`, the inhibition was inactive: -3.26%.

As for `COc1ccccc1OP(C)(=O)Nc1ccc(C)c(C)c1` (centres undefined), the inhibition was inactive: 8.56%.

Consider `COc1ccc(OP(C)(=O)Nc2ccccc2Br)cc1` (centres undefined), for which the inhibition was inactive: -4.32%.

As for `CCOC(=O)c1ccc(NP(C)(=O)Oc2ccc(Cl)cc2)cc1` (centres undefined), the inhibition was inactive: -2%.

For the compound `CP(=O)(OC12CC3CC(CC(C3)C1)C2)OC12CC3CC(CC(C3)C1)C2`, the inhibition was inactive: 11.2%.

With `CC(C)(C)c1ccc(OP(C)(=O)O)cc1`, the inhibition was inactive: 8.84%.

On to `COc1ccccc1OP(C)(=O)Nc1ccccc1Br` (centres undefined), for which the inhibition was inactive: 8.32%.

As for `CP(=O)(Nc1ccc(Cl)cc1)Oc1ccc(F)cc1` (centres undefined), the inhibition was inactive: 1.9%.

`CN(C)C(=O)c1c([N+](=O)[O-])cc([N+](=O)[O-])cc1[N+](=O)[O-]`: the inhibition is inactive: 46.1%.

Regarding `COc1ccc(OP(C)(=O)Nc2ccc(Br)cc2)cc1` (centres undefined), the inhibition is inactive: -13.3%.

In the case of `CCN(CC)CC(O)COC(=O)C(O)(c1ccccc1)C1CCCCC1` (centres undefined), the inhibition is inactive: -2.03%.

On to `O=C(OCCCN1CCCC1)C(O)(c1ccccc1)C1CCCCC1` (centres undefined), for which the inhibition is inactive: -8.54%.

In the case of `COc1ccccc1OP(C)(=O)Nc1c(C)n(C)n(-c2ccccc2)c1=O` (centres undefined), the inhibition is inactive: -15.6%.

`CCc1ccc(OP(C)(=O)Nc2cccnc2)cc1` (centres undefined): the inhibition is inactive: 3.6%.

`CP(=O)(Oc1ccccc1)N1CCOC1=O` (centres undefined): the inhibition is inactive: 4.05%.
